Values of other authors as cited in EP1655608A1, “CFTR as a component of an autophagy signaling pathway, applications thereof to autophagic diseases, and determination of cystic fibrosis as an autophagic disease” (priority 2004, dated 2006).

System: Sertoli cell
Conditions: reported, ref (84); cited from earlier work

biphenol A
Sertoli cell vacuolation in vivo: reported to promote Sertoli cell vacuolation
